## Antibody variant affinities, Ab-14 light chain, assay B

The target is the same throughout: PDVDLGDISGINAS, from the HR2 region of SARS-CoV-2 spike.

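These sequences belong to a second round, designed from the earlier measurements on random variants of the parent. Their group label is 14L_En_Gen (En: ensemble of fine-tuned language models; Gen: genetic algorithm). The assay is AlphaSeq: two haploid yeast populations carry antibody and antigen on their surface. Pairs that bind mate more often; barcode pairs of the diploids are counted by sequencing. A regression on co-assayed BCL2-family reference pairs converts the normalised counts of each replicate to an apparent Kd. Each pool was mated in six replicate cultures.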

Ab-14 is the parent antibody, in scFv form: VH, then the linker GGGGSGGGGSGGGGS, then VL. The heavy chain is unchanged in all variants.
VH: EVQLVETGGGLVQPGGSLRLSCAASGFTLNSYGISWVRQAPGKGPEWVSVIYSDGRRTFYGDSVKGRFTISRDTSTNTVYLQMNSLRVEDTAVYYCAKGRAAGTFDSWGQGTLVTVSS
VL: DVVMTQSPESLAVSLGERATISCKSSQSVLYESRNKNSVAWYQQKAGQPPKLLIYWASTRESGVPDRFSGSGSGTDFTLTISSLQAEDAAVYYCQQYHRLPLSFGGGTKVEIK

Each variant is given by its three light chain CDRs, as the data file delimits them; those of the parent are KSSQSVLYESRNKNSVA, WASTRES, QQYHRLPLS.
Values are log10 of the apparent Kd in nM; lower means stronger binding.
Averages over replicates are reported, and they cover detected replicates only.
"n.d." marks a missing value. The strain was present, yet no cells mated with the target were sequenced in that replicate, which points to weak or no binding.

CDR-L1,CDR-L2,CDR-L3,log10 Kd (nM) by replicate,"mean, log10 nM",signal with controls
MVSQLMLWGLHAKNSIA,EAKMRLN,QQYDRLPLI,n.d. 1.34 n.d. n.d. n.d. n.d.,1.34,0 of 18
MISQIYNMGQFAINSVA,QASVRNE,QQYDRLPLM,1.61 1.37 2.49 1.26 0.98 2.78,1.75,1 of 18 (2.06)
MISQLINMGQFAINSVA,QAETRCN,QQYDRLPLT,n.d. n.d. n.d. n.d. n.d. n.d.,n.d.,0 of 18
IVSQLMLIGMHAKNSIA,EAEKRIN,QQYHRLPLI,2.35 1.78 1.65 2.48 1.82 2.00,2.01,3 of 18 (2.24)
MISQVMNSLTHTGNNVA,DLQEREE,QQYFRLPLS,0.71 0.57 0.76 0.55 1.32 1.03,0.82,1 of 18 (1.10)
HMSMLTLGGMRARNSVA,QMTTREN,QQYDRLPLA,0.71 0.57 n.d. 1.07 0.85 0.89,0.82,0 of 18
MVSQLMLVGMHAKNSIA,EASSRLN,QQYDRLPLI,1.14 1.85 1.35 1.37 1.28 1.18,1.36,2 of 18 (2.40)
HITYGMQVMGRHMESIA,QAEERAK,QQYDRLPLE,0.91 0.86 0.81 0.89 0.96 0.93,0.89,0 of 18
KLMSVTGTEKVHGNNVA,EMETREK,QQYNRLPLA,0.08 0.21 0.18 -0.02 0.20 0.54,0.20,0 of 18
IVSQLMLWGWQAKNSIA,EAQTRLN,QQYDRLPLF,n.d. n.d. n.d. n.d. n.d. n.d.,n.d.,0 of 18
QIYQAMHTLMQQKNNVA,DVTNRNN,QQYFRLPLS,0.28 0.27 0.79 0.30 0.36 0.50,0.42,1 of 18 (2.63)
MMSQVQGMGQRHINNVA,QTSTREE,QQYDRLPLI,0.59 0.26 0.48 -0.06 0.24 0.38,0.32,2 of 18 (2.10)
IVSQLMLWGYHAKNSIA,EAQTRVN,QQYDRLPLI,n.d. n.d. n.d. n.d. n.d. n.d.,n.d.,0 of 18
KLTQTMRFEQKKKNNIA,EVTTRSK,QQYARLPIS,2.61 n.d. n.d. 3.12 n.d. 3.14,2.96,0 of 18
MISQVTGLGQRHRNNVA,QTSMRET,QQYDRLPLI,0.51 0.58 0.51 0.32 0.36 0.33,0.44,1 of 18 (2.28)
TISGVMQTQSHSKNNVA,EVSMRLK,QQYFRLPLE,0.94 1.80 1.76 0.91 0.73 1.49,1.27,0 of 18
KVSSFMRGLMMRTDSIA,DNETRNN,QQYDRLPLS,0.52 1.65 0.71 0.49 0.76 1.32,0.91,2 of 18 (2.16)
MISQLYNMGQFAINSVA,QAEERYN,QQYDRLPLV,1.42 0.87 0.44 1.16 0.75 2.43,1.18,0 of 18
QLYEMLYELSGKTHSVA,DNSTRGE,QQYFRLPLD,2.26 1.85 2.55 2.01 1.99 2.31,2.16,4 of 18 (3.49)
MISQVMNTLTRNGNNVA,DLQEREK,QQYFRLPLS,1.34 1.32 0.57 0.66 1.17 0.78,0.97,0 of 18
TISQVMNTMTRHGNNVA,DLENRED,QQYFRLPLS,0.50 0.65 0.53 0.56 1.10 1.41,0.79,1 of 18 (2.16)
MISQLINMGSFAINSVA,QASLRCN,QQYDRLPLA,n.d. n.d. n.d. n.d. n.d. n.d.,n.d.,0 of 18
KLSMTHEMEHVNRNSVA,ELVTRIS,QQYNRLPLS,1.15 0.67 0.32 0.58 0.72 0.73,0.70,0 of 18
TISQVMNTLTREGNNVA,DLAEREH,QQYFRLPLS,1.07 1.03 0.99 0.78 1.27 0.58,0.95,1 of 18 (2.15)
MIGEMLMQGAYKRNSVA,QANIRAQ,QHYHRLPLE,0.86 0.77 1.11 0.78 0.56 1.23,0.88,1 of 18 (2.24)
MISSLYNMGQFAINSVA,QAQTRNE,QQYDRLPLM,1.39 1.71 n.d. n.d. 1.46 1.97,1.63,0 of 18
TIAQAMDHLQRNKNNVA,DTNCRED,QDYNRLPLS,-0.10 -0.40 -0.32 -0.45 -0.46 -0.10,-0.31,0 of 18
MISQLQNMGSFAINSVA,QASLRNE,QQYDRLPLM,1.11 2.02 1.65 1.46 1.99 2.79,1.84,1 of 18 (3.40)
KLTQTMRFETKNKNNIA,EVAERLK,QQYFRLPLA,0.05 -0.15 -0.02 0.06 0.03 0.45,0.07,1 of 18 (2.41)
KLGVSMGILEQYRNSVA,QNSTREE,QQYDHLPLS,1.93 2.83 1.98 n.d. 1.67 3.35,2.35,1 of 18 (3.18)
KISMTSENQLKQRNSVA,ELVTRVN,QQYNRLPLS,n.d. 1.12 1.04 1.14 1.76 n.d.,1.27,0 of 18
TISQMTSLFSQTINNVA,EVSTREP,QQYDRLPLA,1.23 0.64 1.01 0.49 0.85 0.96,0.86,0 of 18
MISQLMNLGQFAINSVA,QATIRNS,QQYDRLPLV,0.42 1.63 0.79 0.53 0.85 0.91,0.86,1 of 18 (1.71)
KVSEFMRGLTQRKDSIA,DNVTRNS,QQYDRLPLS,n.d. n.d. 2.99 2.24 2.42 2.67,2.58,0 of 18
KLSMITGHMSMSRNNVA,EMATREN,QQYERLPLS,0.67 0.57 0.58 0.45 0.61 0.78,0.61,2 of 18 (2.53)
KVSEFMRGLMKIKNSIA,DNVTRSN,QQYDRLPLS,1.51 1.47 1.17 1.36 0.96 1.18,1.28,1 of 18 (2.05)
TLSQMSGVESVKHNSVA,ENSTREK,QQYDRLPLA,n.d. 2.75 2.38 n.d. 4.15 2.02,2.82,2 of 18 (2.36)
KISQMIRVGSTAMNSIA,EEVTRAK,QQYHRLPLA,1.67 2.19 n.d. n.d. 2.26 n.d.,2.04,1 of 18 (1.97)
MMSQVTTSGTRHRNNVA,QTSMRET,QQYDRLPLI,0.08 0.62 0.71 0.07 0.55 0.57,0.44,0 of 18
IVSQLMLWGVSAKNSIA,EAVTRLN,QQYDRLPLF,n.d. n.d. n.d. n.d. 2.02 n.d.,2.02,0 of 18
HMSMLTMMGMKQRNSVA,QMTMREN,QQYDRLPLT,0.67 0.66 0.26 0.50 0.81 1.08,0.66,0 of 18
HITMGMYVSGRHHSSIA,QAEERAK,QQYDRLPLI,1.52 1.25 1.24 1.98 1.46 1.93,1.56,1 of 18 (3.05)
MMSQVTGSGSRHRNNVA,QTSMREI,QQYDRLPLI,1.25 1.57 1.11 0.65 1.12 0.69,1.06,1 of 18 (2.40)
KIIDFSLVSMKAHNSIA,DNDMRND,QQYDRLPLS,0.44 1.47 0.61 0.35 0.74 0.67,0.71,1 of 18 (2.44)
MLSQMTGLGMKAKNSVA,QASMRFN,QQYHRLPLI,n.d. n.d. n.d. 1.36 n.d. n.d.,1.36,0 of 18
KLTSITGTEKVKGNNVA,EMETREE,QQYNRLPLS,0.88 0.36 1.46 0.55 0.84 0.52,0.77,0 of 18
IVSQLMIWGMHLKNSIA,EAETRLN,QQYDRLPLF,n.d. 1.74 n.d. 2.23 n.d. n.d.,1.98,0 of 18
TISQLHNMGTFAINSVA,QASIRNA,QQYDRLPLA,0.63 n.d. 1.32 0.28 n.d. 0.41,0.66,0 of 18
KLSMITGHMSMIKNNVA,EMETREN,QQYNRLPLA,0.05 0.26 0.38 0.24 0.08 0.03,0.17,0 of 18
KLVNFMNRGTHHTSNIA,DAQNRCD,QQYARLPLD,1.40 0.83 1.23 1.06 1.16 1.27,1.16,3 of 18 (3.25)
KISGMSNHQSSVHNNVA,ENVTRVQ,QQYFRLPLS,2.30 1.79 2.94 2.36 2.19 1.89,2.25,1 of 18 (2.72)
KLSQITGHLSVSKNNVA,EMETREN,QQYDRLPLA,0.31 0.73 1.08 0.59 0.39 0.60,0.62,0 of 18

8 of these entries, quoted again:

CDR-L1,CDR-L2,CDR-L3,log10 Kd (nM) by replicate,"mean, log10 nM",signal with controls
KLSMITGHMSMSRNNVA,EMATREN,QQYERLPLS,0.67 0.57 0.58 0.45 0.61 0.78,0.61,2 of 18 (2.53)
QIYQAMHTLMQQKNNVA,DVTNRNN,QQYFRLPLS,0.28 0.27 0.79 0.30 0.36 0.50,0.42,1 of 18 (2.63)
KLTSITGTEKVKGNNVA,EMETREE,QQYNRLPLS,0.88 0.36 1.46 0.55 0.84 0.52,0.77,0 of 18
TISGVMQTQSHSKNNVA,EVSMRLK,QQYFRLPLE,0.94 1.80 1.76 0.91 0.73 1.49,1.27,0 of 18
TIAQAMDHLQRNKNNVA,DTNCRED,QDYNRLPLS,-0.10 -0.40 -0.32 -0.45 -0.46 -0.10,-0.31,0 of 18
TISQVMNTLTREGNNVA,DLAEREH,QQYFRLPLS,1.07 1.03 0.99 0.78 1.27 0.58,0.95,1 of 18 (2.15)
HMSMLTLGGMRARNSVA,QMTTREN,QQYDRLPLA,0.71 0.57 n.d. 1.07 0.85 0.89,0.82,0 of 18
KISGMSNHQSSVHNNVA,ENVTRVQ,QQYFRLPLS,2.30 1.79 2.94 2.36 2.19 1.89,2.25,1 of 18 (2.72)

A sequence measured in both rounds can read differently, since the two assays cover different ranges.
Three control strains display no target. For all light chain designs, 4% of the pairings with them gave a signal, with a median of 2.64 and one signal in twenty below 1.59, so weak values seen in few replicates may be background. Also given: how often the same scFv was detected with the empty control strains, with their mean in brackets.
The authors' rule: three or more of the six replicates give a measured affinity, fewer mean a poor binder.

Source: Li et al. 2023 (doi:10.1038/s41467-023-39022-2), MIT Lincoln Laboratory and A-Alpha Bio; data file from the FLAb repository.